According to patent publication US8741944B2, “Anti-infective agents against intracellular pathogens” (priority 2007, dated 2014):

System: PC-3 cells
Test: Apoptosis analysis in PC-3 cells (DNA fragmentation ELISA, PARP cleavage)
Format: cell-based, human
Settings: concentrations greater than […]

N=C(N)Nc1ccc(-n2nc(C(F)(F)F)cc2-c2ccc3c(ccc4ccccc43)c2)cc1
potency in apoptosis induction compared with compound 59: higher potency than compound 59
